Experimental data from US6475993B2, “Treatment of hereditary diseases with gentamicin” (Universite Laval, priority 1998, dated 2002).

Test: Blood concentration of gentamicin in mdx mice
Type: in vivo
Details: dose of about 35-40 mg/Kg/day gentamicin
Method: In humans, the usual antibiotic dosage rate of gentamicin is of about 3-5 mg/Kg/day, non-divided dose, for intramuscular route of administration. To avoid toxicity, it is recommended that gentamicin dosage rates be adjusted to avoid blood concentrations higher than 12 μg/mL for prolonged periods of time. […] The blood circulation levels of gentamicin that would be effective in humans have not been calculated, but allometric calculation could bring a dose effective in mice close to an equivalent of about 1.5 to about 6 mg per Kg per day in humans. It is possible to co-administer agents to counteract the oto- or nephrotoxicity of high doses of gentamicin, such as 2,3 dihydroxybenzoate (DHB) as disclosed by Song and Schacht (1996) and by Pearce et al. (1985). Alternatively, aminoglycoside derivatives having an activity towards inserting an amino acid instead of stopping translation may be designed, taking gentamicin as a reference compound. […] Further, any mean by which gentamicin or gentamicin-like or derived molecules can be driven more directly to the site of action is within the scope of this invention.

gentamicin
Blood concentration: about 65 μg/mL
